Data as given in patent US10894035B2, “Use of indole compounds to stimulate the immune system” (priority 2015, dated 2021).

Experiments:
Assay in all cases: sPLA2 specificity panel (Table 1)
Format in all cases: biochemical
Details in all cases: panel of secreted PLA2, result in words
[1] = target: T1, sPLA2GIIF (Homo sapiens, UniProt Q9BZM2)
T1 sequence (Q9BZM2 21-168): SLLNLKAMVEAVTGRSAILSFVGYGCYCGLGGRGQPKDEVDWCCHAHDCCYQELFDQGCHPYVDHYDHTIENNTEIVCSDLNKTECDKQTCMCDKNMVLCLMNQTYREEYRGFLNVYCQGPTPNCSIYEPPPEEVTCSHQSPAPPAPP

[2] = target: T2, sPLA2GIIA (Homo sapiens, UniProt P14555)
T2 sequence (P14555 21-144): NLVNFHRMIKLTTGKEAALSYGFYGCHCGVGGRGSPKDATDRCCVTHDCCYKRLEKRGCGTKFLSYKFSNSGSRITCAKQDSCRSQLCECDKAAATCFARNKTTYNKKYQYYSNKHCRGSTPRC
Description: IC50 values for a panel of secreted Phospholipase A2 (sPLA2) are shown.

[3] = target: T3, sPLA2GX (Homo sapiens, UniProt O15496)
T3 sequence (O15496 43-165): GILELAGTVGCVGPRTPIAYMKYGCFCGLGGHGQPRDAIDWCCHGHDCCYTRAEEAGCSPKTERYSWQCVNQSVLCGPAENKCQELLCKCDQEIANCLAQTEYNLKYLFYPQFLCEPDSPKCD

CCc1c(C(=O)C(N)=O)c2c(OCC(=O)O)cccc2n1Cc1ccccc1 [Compound B]
significant IC50: IC50 sPLA2GIIF [1] | IC50 sPLA2GIIA [2] | IC50 sPLA2GX [3]
